Cyclic peptide permeability, from CycPeptMPDB

PAMPA measures passive passage through an artificial lipid membrane. Permeability is in 10^-6 cm/s, converted from the database's log10 values; higher is more permeable.

| structure (SMILES) | PAMPA (10^-6 cm/s) |
|---|---|
| CC(C)C[C@@H]1C(=O)N[C@H](CC(C)C)C(=O)N2CCC[C@H]2C(=O)N(C)[C@@H](CC(C)C)C(=O)N[C@@H](Cc2ccccc2)C(=O)N2CCC[C@@H]2C(=O)N[C@H](C)C(=O)N1C | 0.63 |
| CCCN1CC(=O)N[C@H](CC(C)C)C(=O)N[C@H](CC(C)C)C(=O)N2CCC[C@H]2C(=O)N[C@H](CC(C)C)C(=O)N[C@@H](Cc2ccccc2)C(=O)N2CCC[C@H]2C1=O | 1.3 |
| CC(C)C[C@H]1NC(=O)C[C@H](Cc2ccccc2)NC(=O)[C@@H]2CCCN2C(=O)[C@H](Cc2ccccc2)NC(=O)CN(Cc2ccccc2)C(=O)[C@@H]2CCCN2C(=O)[C@@H](CC(C)C)NC1=O | 1.3 |
| CCCN1CC(=O)N[C@H](CC(C)C)C(=O)N[C@H](CC(C)C)C(=O)N2CCC[C@@H]2C(=O)N(Cc2ccccc2)CC(=O)N[C@@H](Cc2ccccc2)C1=O | 1.2 |
| CC(C)C[C@@H]1NC(=O)[C@@H](C)N(C)C(=O)[C@@H]2CCCN2C(=O)[C@H](Cc2ccccc2)NC(=O)[C@H](CC(C)C)N(C)C(=O)[C@@H]2CCCN2C(=O)[C@H](CC(C)C)NC1=O | 1 |
| CC(C)C[C@@H]1NC(=O)[C@@H](C)N(C)C(=O)[C@H](Cc2ccccc2)NC(=O)[C@@H](CC(C)C)NC(=O)[C@H]2CCCN2C(=O)[C@H](CC(C)C)N(C)C1=O | 1.9 |
| CC(C)C[C@@H]1NC(=O)[C@@H]2CCCN2C(=O)[C@H](CC(C)C)NC(=O)[C@H](CC(C)C)N(C)C(=O)[C@@H](C)NC(=O)[C@H](Cc2ccccc2)NC1=O | 0.62 |
| CC(C)C[C@@H]1NC(=O)[C@H]2CCCN2C(=O)CN(Cc2ccccc2)C(=O)[C@H](CC(C)C)NC(=O)[C@H](C)NC(=O)[C@H](Cc2ccccc2)NC1=O | 0.29 |
| CC(C)C[C@@H]1NC(=O)[C@@H](C)N(C)C(=O)[C@H]2CCCN2C(=O)[C@H](Cc2ccccc2)NC(=O)[C@@H](CC(C)C)N(C)C(=O)[C@H]2CCCN2C(=O)CN(Cc2ccccc2)C1=O | 5.8 |
| CCCN1CC(=O)N[C@@H](CC(C)C)C(=O)N(C)[C@H](CC(C)C)C(=O)N2CCC[C@H]2C(=O)N[C@@H](CC(C)C)C(=O)N[C@@H](Cc2ccccc2)C1=O | 6.3 |
| CC(C)C[C@@H]1NC(=O)[C@@H]2CCCN2C(=O)[C@H](CC(C)C)N(C)C(=O)[C@@H](CC(C)C)N(C)C(=O)[C@H](C)NC(=O)[C@H]2CCCN2C(=O)[C@H](Cc2ccccc2)NC1=O | 1.3 |
| CC(C)C[C@@H]1NC(=O)[C@@H]2CCCN2C(=O)[C@H](CC(C)C)N(C)C(=O)[C@H](CC(C)C)NC(=O)C[C@H](Cc2ccccc2)NC(=O)[C@H]2CCCN2C(=O)[C@H](Cc2ccccc2)NC1=O | 3.5 |
| CCCN1CC(=O)N[C@@H](CC(C)C)C(=O)N(C)[C@H](CC(C)C)C(=O)N2CCC[C@@H]2C(=O)N(Cc2ccccc2)CC(=O)N[C@@H](Cc2ccccc2)C(=O)N2CCC[C@@H]2C1=O | 3 |
| CC(C)C[C@H]1NC(=O)[C@@H]2CCCN2C(=O)[C@H](CC(C)C)N(C)C(=O)[C@H](CC(C)C)N(C)C(=O)[C@H](C)N(C)C(=O)[C@H](Cc2ccccc2)NC1=O | 8.3 |
| CC(C)C[C@@H]1NC(=O)[C@@H](C)NC(=O)[C@@H]2CCCN2C(=O)[C@H](Cc2ccccc2)NC(=O)[C@@H](CC(C)C)N(C)C(=O)[C@@H]2CCCN2C(=O)C[C@H](Cc2ccccc2)NC1=O | 1.3 |
| CC(C)C[C@@H]1NC(=O)[C@H](CC(C)C)N(C)C(=O)[C@@H](C)N(C)C(=O)[C@H](Cc2ccccc2)NC(=O)CN(Cc2ccccc2)C(=O)[C@H]2CCCN2C1=O | 6 |
| CC(C)C[C@H]1C(=O)N[C@@H](Cc2ccccc2)CC(=O)N2CCC[C@H]2C(=O)N(Cc2ccccc2)CC(=O)N[C@@H](Cc2ccccc2)C(=O)N2CCC[C@@H]2C(=O)N(C)[C@H](C)C(=O)N1C | 0.55 |
| CC(C)C[C@@H]1NC(=O)[C@@H]2CCCN2C(=O)[C@@H](CC(C)C)NC(=O)[C@@H](CC(C)C)NC(=O)C[C@H](Cc2ccccc2)NC(=O)[C@H]2CCCN2C(=O)[C@H](Cc2ccccc2)NC1=O | 1.6 |
| CCCN1CC(=O)N(C)[C@@H](CC(C)C)C(=O)N[C@@H](Cc2ccccc2)CC(=O)N2CCC[C@@H]2C(=O)N(C)[C@@H](CC(C)C)C(=O)N[C@@H](Cc2ccccc2)C(=O)N2CCC[C@@H]2C1=O | 3.2 |
| CC(C)C[C@@H]1NC(=O)[C@H](C)N(C)C(=O)[C@H]2CCCN2C(=O)[C@H](Cc2ccccc2)NC(=O)[C@H](CC(C)C)N(C)C(=O)[C@@H]2CCCN2C(=O)[C@H](CC(C)C)NC1=O | 1.4 |
| CCCN1CC(=O)N[C@H](CC(C)C)C(=O)N(C)[C@H](CC(C)C)C(=O)N2CCC[C@H]2C(=O)N[C@H](CC(C)C)C(=O)N[C@@H](Cc2ccccc2)C1=O | 11 |
| CCCN1CC(=O)N[C@@H](CC(C)C)C(=O)N[C@@H](CC(C)C)C(=O)N2CCC[C@@H]2C(=O)N[C@@H](CC(C)C)C(=O)N[C@@H](Cc2ccccc2)C(=O)N2CCC[C@@H]2C1=O | 1.8 |
| CC(C)C[C@H]1NC(=O)[C@H](C)NC(=O)[C@@H]2CCCN2C(=O)[C@H](Cc2ccccc2)NC(=O)[C@H](CC(C)C)N(C)C(=O)[C@H]2CCCN2C(=O)CN(Cc2ccccc2)C1=O | 0.63 |
| CC(C)C[C@@H]1C(=O)N2CCC[C@@H]2C(=O)N(Cc2ccccc2)CC(=O)N[C@@H](Cc2ccccc2)C(=O)N(C)[C@@H](C)C(=O)N[C@H](CC(C)C)C(=O)N1C | 6.3 |

The first 3 entries again:

| structure (SMILES) | PAMPA (10^-6 cm/s) |
|---|---|
| CC(C)C[C@@H]1C(=O)N[C@H](CC(C)C)C(=O)N2CCC[C@H]2C(=O)N(C)[C@@H](CC(C)C)C(=O)N[C@@H](Cc2ccccc2)C(=O)N2CCC[C@@H]2C(=O)N[C@H](C)C(=O)N1C | 0.63 |
| CCCN1CC(=O)N[C@H](CC(C)C)C(=O)N[C@H](CC(C)C)C(=O)N2CCC[C@H]2C(=O)N[C@H](CC(C)C)C(=O)N[C@@H](Cc2ccccc2)C(=O)N2CCC[C@H]2C1=O | 1.3 |
| CC(C)C[C@H]1NC(=O)C[C@H](Cc2ccccc2)NC(=O)[C@@H]2CCCN2C(=O)[C@H](Cc2ccccc2)NC(=O)CN(Cc2ccccc2)C(=O)[C@@H]2CCCN2C(=O)[C@@H](CC(C)C)NC1=O | 1.3 |

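The data file gives no further conditions (lipid, pH, time, direction or concentration), and values from different papers need not be comparable. Other peptides of the study may be missing here. Peptides that the database sets to -10, its floor, are left out.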

Data: CycPeptMPDB; original report Townsend et al. 2020, doi:10.26434/chemrxiv.13335941.v1.